The assay deals with alpha adrenergic 2B receptor (Mus musculus, UniProt P30545). The note with it: vs norepinephrine, FIG. 1B.

Sequences of proteins named here, by UniProt entry; tags and fusion partners are left off.
UniProt P30545, whole entry: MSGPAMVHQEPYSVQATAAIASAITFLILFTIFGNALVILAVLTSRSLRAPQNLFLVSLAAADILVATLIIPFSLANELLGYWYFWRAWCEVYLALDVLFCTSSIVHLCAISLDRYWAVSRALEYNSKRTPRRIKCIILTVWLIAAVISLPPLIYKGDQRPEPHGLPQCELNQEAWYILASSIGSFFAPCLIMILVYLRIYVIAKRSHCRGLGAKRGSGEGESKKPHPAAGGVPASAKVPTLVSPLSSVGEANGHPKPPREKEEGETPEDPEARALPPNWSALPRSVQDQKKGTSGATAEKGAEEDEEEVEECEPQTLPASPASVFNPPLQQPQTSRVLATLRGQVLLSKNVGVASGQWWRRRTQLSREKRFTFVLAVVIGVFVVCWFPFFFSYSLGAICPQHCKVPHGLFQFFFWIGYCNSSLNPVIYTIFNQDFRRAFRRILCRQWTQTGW

From patent US20100076194A1, “SUBSTITUTED 3-AMINO-1-OXO OR THIOXO-1,2,5,6,7,8-HEXAHYDRO-2,7-NAPHTHYRIDINE-4-CARBONITRILES ARE SELECTIVE ALPHA 2B ANTAGONISTS” (ALLERGAN, INC., priority 2008, published 2010) come the findings set out here.

In the case of `CN1CCc2c(C#N)c(N)n(C)c(=S)c2C1` [Example 5, 3-amino-2,7-dimethyl-1-thioxo-1,2,5,6,7,8-hexahydro-2,7-naphthyridine-4-carbonitrile], the “antagonist selectivity as determined by the Schild analysis” value is “selective alpha adrenergic 2B receptor antagonist”.
